Yeast mating assay 2: variants of the scFv Ab-95

Target peptide (SARS-CoV-2 spike, HR2 region): PDVDLGDISGINAS

The variants keep the heavy chain, the linker and the frameworks of Ab-95 (scFv order VH, a (GGGGS)3 linker, VL).
VH: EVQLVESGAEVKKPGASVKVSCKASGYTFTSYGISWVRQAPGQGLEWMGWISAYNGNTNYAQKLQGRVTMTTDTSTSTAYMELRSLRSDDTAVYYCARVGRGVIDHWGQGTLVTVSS
VL: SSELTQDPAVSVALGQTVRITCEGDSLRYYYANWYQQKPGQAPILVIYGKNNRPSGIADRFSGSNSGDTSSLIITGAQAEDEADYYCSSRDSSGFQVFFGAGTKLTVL

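Variants in AAYL52 differ from the parent at up to three CDR positions; double and triple changes were sampled at random. The assay is AlphaSeq: two haploid yeast populations carry antibody and antigen on their surface. After mating in shaken culture at 30 °C for 16 h, diploids were selected and their barcode pairs sequenced. Scores were corrected for input abundance and mapped to Kd with protein pairs of known affinity run in the same pool. Each pool was mated in three replicate cultures.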

Variants are written as CDR1, CDR2 and CDR3 of the light chain (limits as in the source). Parent: EGDSLRYYYAN, GKNNRPS, SSRDSSGFQVF. Every variant below is changed at Y30 of the VL (sequential numbering). The Kd shown is the geometric mean over detected replicates; a lower Kd is a better binder. "nd" means that the variant was in the library but no mating with the target was seen in any replicate; the authors take this as a sign of poor binding, and no number exists.

| CDR-L1 | CDR-L2 | CDR-L3 | apparent Kd | replicates with signal |
|---|---|---|---|---|
| EGDSLRYNYAN | GHNVRPS | SSRDSSGFQVF | 7.5 nM | 3 of 3 |
| EGDSLRYKYAN | GTNNRPS | SSRDSSGFGVF | 1.2 µM | 3 of 3 |
| EGDSLRYFYAN | GKNNRPS | SSRDSSGFQVF | 1.5 µM | 3 of 3 |
| EGDSLRYPYAN | GKNHRPS | SSRDSSSFQVF | 14 µM | 3 of 3 |
| EGDSLRYVGAN | GKLNRPS | SSRDSSGFQVF | 2.0 µM | 3 of 3 |
| EGDSLRSHYAN | GKQNRPS | SSRDSSGFQVF | 16 nM | 3 of 3 |
| EGDSLRYLYAN | GKNNRPS | SSRDSSGFQVF | 120 nM | 3 of 3 |
| EGYSLRYEYAN | GKNNRPS | SSRDSSDFQVF | 76 nM | 3 of 3 |
| EGDSLRYMRAR | GKNNRPS | SSRDSSGFQVF | 190 µM | 1 of 3 |
| EGDSERYTYAN | LKNNRPS | SSRDSSGFQVF | 20 µM | 1 of 3 |
| EFDTLRYCYAN | GKNNRPS | SSRDSSGFQVF | 760 nM | 3 of 3 |
| EGDSLRYCMAN | QKNNRPS | SSRDSSGFQVF | 1.7 µM | 3 of 3 |
| ESDSLRYLYCN | GKNNRPS | SSRDSSGFQVF | 5.4 µM | 3 of 3 |
| EGDSLAYSYAN | GKNNRPS | SSRDSSFFQVF | 5.9 nM | 3 of 3 |
| RGDSLRYIYAN | GKNNRPS | SSRDSSGFQMF | 3.9 µM | 3 of 3 |
| EGDSLRYHYAN | GKNNRPW | SSRDSSGEQVF | 15 nM | 3 of 3 |
| EGDALRYWYAN | GKNNRPS | SSRDSSGFYVF | 310 nM | 3 of 3 |
| EGDSLRYRYAN | GKNNHPS | SSRDSSGGQVF | 790 nM | 3 of 3 |
| EGDSLRYVMAN | GKNNRPS | SSRDHSGFQVF | 99 nM | 3 of 3 |
| EGDSLRYLYAN | GKNNRPS | SGRDSSGFNVF | 300 nM | 3 of 3 |
| EGDSLRYTYAN | GKNNRPS | STRDSPGFQVF | 83 nM | 3 of 3 |
| EGDSLRYSYAN | GKNNRPP | SSRDSSGFQVF | 220 nM | 3 of 3 |
| EGDSMRYQYAN | GKNYRPS | SSRDSSGFQVF | 14 nM | 3 of 3 |
| EGDSLRYKYAN | GKNNRPV | SSRDSSGFAVF | 18 nM | 3 of 3 |
| YGDSLRYFYAN | GKNNSPS | SSRDSSGFQVF | nd | 0 of 3 |
| EGDSLRYDYAM | GKNNRPS | ISRDSSGFQVF | 5.0 µM | 2 of 3 |
| EGVSLRYFYAN | GKNNRPS | SSRDSSGFQVE | 3.2 µM | 3 of 3 |
| EGDSLRYWYAH | GKNNRPA | SSRDSSGFQVF | 15 µM | 2 of 3 |
| EGDSLRYWYAN | GLNNRPS | SSRDSSGFQVE | 4.8 µM | 2 of 3 |
| EGDSLRYDYAN | GKNNRPS | SSRDSNGFQCF | 150 nM | 3 of 3 |
| EGDSIRYCYHN | GKNNRPS | SSRDSSGFQVF | 820 nM | 3 of 3 |
| EGDSLRYSYAN | GKNNYPS | SSRDSSGFQVI | 1.8 µM | 3 of 3 |
| EGDSLRYECAN | GKNNLPS | SSRDSSGFQVF | 330 nM | 3 of 3 |
| EGDSLRYRYAN | GKNNRPS | SSVDSSGFQHF | 160 nM | 3 of 3 |
| EGDSLCYSYAN | GKNNRPS | SSRDSSGFDVF | 110 nM | 3 of 3 |
| EGNSLRYAIAN | GKNNRPS | SSRDSSGFQVF | 160 nM | 3 of 3 |
| EGDSLRYSYYN | GKNNRPS | SSIDSSGFQVF | nd | 0 of 3 |
| EGDSLRYVYAN | GKFNRPS | SSRKSSGFQVF | 100 µM | 1 of 3 |
| EGDSLRYSYAE | GKWNRPS | SSRDSSGFQVF | 8.6 µM | 2 of 3 |
| EGDSNRYRYQN | GKNNRPS | SSRDSSGFQVF | 5.4 µM | 2 of 3 |
| EGDKLRYEYAN | GKNNRPS | SSRLSSGFQVF | nd | 0 of 3 |
| EGDSKRYWYAN | GQNNRPS | SSRDSSGFQVF | 40 µM | 3 of 3 |
| EGDSLRELYAN | NKNNRPS | SSRDSSGFQVF | 2.3 µM | 2 of 3 |
| EGDSLRYTYAN | GKNNRPS | KSRDHSGFQVF | nd | 0 of 3 |
| EGDSLRYKYAN | GKNNRPY | SSWDSSGFQVF | 18 nM | 3 of 3 |
| EGDSLRYKYAN | GKNNRPS | SSRDSSFFQVI | 230 nM | 3 of 3 |
| EGDSLRYCYAN | GKNNRFS | KSRDSSGFQVF | 65 µM | 2 of 3 |
| EGDSLRYLYAN | MKNNRVS | SSRDSSGFQVF | 50 µM | 2 of 3 |
| EGDWLRYTYAN | GKNNRDS | SSRDSSGFQVF | 340 nM | 3 of 3 |
| EGDSLRYSYAN | GKNNRPS | SSRDSSEFQVV | 9.5 µM | 1 of 3 |
| EGDSLRYEYAS | GKNNRPS | SSRDSSGFQVF | 72 nM | 3 of 3 |
| EGDSLRYCYAN | GKNNRPS | SSRDKDGFQVF | 290 nM | 3 of 3 |
| EGQSLRYIYAN | GKNNRPS | SSCDSSGFQVF | 1.8 µM | 2 of 3 |
| EGDSLRYLYAN | GKNDRPS | DSRDSSGFQVF | 890 nM | 3 of 3 |
| EGDSLRLWYAN | GKNNRPS | SSRDSSGFQNF | 76 nM | 3 of 3 |
| EGDSLRHSYAN | GKNNRPS | SSRDSQGFQVF | 140 nM | 3 of 3 |
| EGDSFRMEYAN | GKNNRPS | SSRDSSGFQVF | 240 nM | 3 of 3 |
| EGDSLRYPYAN | GQNNRNS | SSRDSSGFQVF | 490 nM | 3 of 3 |
| EGDSLRYGYAN | GKNIVPS | SSRDSSGFQVF | 64 nM | 3 of 3 |
| EGDSLRYDYAY | GKNNRPS | SSRDSSGFQRF | 11 µM | 3 of 3 |
| EGDSLRYQYAN | GKQNRPS | SKRDSSGFQVF | 32 nM | 3 of 3 |
| EGDSLRYHYAN | GKNNRPS | SKRDSSGIQVF | 19 nM | 3 of 3 |
| EGCSLRYVYAN | GKNNRPS | SSRDSSGFQMF | 91 µM | 2 of 3 |
| SGDSLRYAYVN | GKNNRPS | SSRDSSGFQVF | 4.9 nM | 3 of 3 |
| EGDSLRYHYAN | GKNNRWS | SSRDSSGFPVF | 330 nM | 3 of 3 |
| EGDSLKYHYAN | GHNNRPS | SSRDSSGFQVF | 13 nM | 3 of 3 |
| EGDSLRYKYAN | GKNNRPS | LSRDSSSFQVF | 20 µM | 3 of 3 |
| EGDSHRYKYAN | GKNNRPS | SSRDASGFQVF | 170 nM | 3 of 3 |
| EGDSLRYSYAN | GKNQRPS | SSRDSSGFVVF | 10 nM | 3 of 3 |
| EGDSLRYCYAN | GKNNRPS | SSRDSSGFQVI | 750 nM | 3 of 3 |
| EGDSLRYAYAN | GKNNRSS | SSRDSSGFQDF | 400 nM | 3 of 3 |

Excerpt, the first 11 entries:

| CDR-L1 | CDR-L2 | CDR-L3 | apparent Kd | replicates with signal |
|---|---|---|---|---|
| EGDSLRYNYAN | GHNVRPS | SSRDSSGFQVF | 7.5 nM | 3 of 3 |
| EGDSLRYKYAN | GTNNRPS | SSRDSSGFGVF | 1.2 µM | 3 of 3 |
| EGDSLRYFYAN | GKNNRPS | SSRDSSGFQVF | 1.5 µM | 3 of 3 |
| EGDSLRYPYAN | GKNHRPS | SSRDSSSFQVF | 14 µM | 3 of 3 |
| EGDSLRYVGAN | GKLNRPS | SSRDSSGFQVF | 2.0 µM | 3 of 3 |
| EGDSLRSHYAN | GKQNRPS | SSRDSSGFQVF | 16 nM | 3 of 3 |
| EGDSLRYLYAN | GKNNRPS | SSRDSSGFQVF | 120 nM | 3 of 3 |
| EGYSLRYEYAN | GKNNRPS | SSRDSSDFQVF | 76 nM | 3 of 3 |
| EGDSLRYMRAR | GKNNRPS | SSRDSSGFQVF | 190 µM | 1 of 3 |
| EGDSERYTYAN | LKNNRPS | SSRDSSGFQVF | 20 µM | 1 of 3 |
| EFDTLRYCYAN | GKNNRPS | SSRDSSGFQVF | 760 nM | 3 of 3 |

Nonspecific signal, from three strains lacking the peptide, appeared in 28% of pairings of library AAYL52, centred on 8.2 µM (5% of these signals below 800 nM); values are not corrected for it. For reference, the parent read 200 nM as the reference entry and 180 nM as a member of this library.

Data: MIT Lincoln Laboratory AlphaSeq set, Engelhart et al. 2022, doi:10.1038/s41597-022-01779-4, as distributed in FLAb.